Laboratory results published in US9238644B2, “VEGFR3 inhibitors” (CANCER THERAPEUTICS CRC PTY LIMITED, priority 2012, dated 2016).

Amino acid sequences for entries named in this document (tags omitted). Residues count along the entry.
UniProt P35916, 25-1363: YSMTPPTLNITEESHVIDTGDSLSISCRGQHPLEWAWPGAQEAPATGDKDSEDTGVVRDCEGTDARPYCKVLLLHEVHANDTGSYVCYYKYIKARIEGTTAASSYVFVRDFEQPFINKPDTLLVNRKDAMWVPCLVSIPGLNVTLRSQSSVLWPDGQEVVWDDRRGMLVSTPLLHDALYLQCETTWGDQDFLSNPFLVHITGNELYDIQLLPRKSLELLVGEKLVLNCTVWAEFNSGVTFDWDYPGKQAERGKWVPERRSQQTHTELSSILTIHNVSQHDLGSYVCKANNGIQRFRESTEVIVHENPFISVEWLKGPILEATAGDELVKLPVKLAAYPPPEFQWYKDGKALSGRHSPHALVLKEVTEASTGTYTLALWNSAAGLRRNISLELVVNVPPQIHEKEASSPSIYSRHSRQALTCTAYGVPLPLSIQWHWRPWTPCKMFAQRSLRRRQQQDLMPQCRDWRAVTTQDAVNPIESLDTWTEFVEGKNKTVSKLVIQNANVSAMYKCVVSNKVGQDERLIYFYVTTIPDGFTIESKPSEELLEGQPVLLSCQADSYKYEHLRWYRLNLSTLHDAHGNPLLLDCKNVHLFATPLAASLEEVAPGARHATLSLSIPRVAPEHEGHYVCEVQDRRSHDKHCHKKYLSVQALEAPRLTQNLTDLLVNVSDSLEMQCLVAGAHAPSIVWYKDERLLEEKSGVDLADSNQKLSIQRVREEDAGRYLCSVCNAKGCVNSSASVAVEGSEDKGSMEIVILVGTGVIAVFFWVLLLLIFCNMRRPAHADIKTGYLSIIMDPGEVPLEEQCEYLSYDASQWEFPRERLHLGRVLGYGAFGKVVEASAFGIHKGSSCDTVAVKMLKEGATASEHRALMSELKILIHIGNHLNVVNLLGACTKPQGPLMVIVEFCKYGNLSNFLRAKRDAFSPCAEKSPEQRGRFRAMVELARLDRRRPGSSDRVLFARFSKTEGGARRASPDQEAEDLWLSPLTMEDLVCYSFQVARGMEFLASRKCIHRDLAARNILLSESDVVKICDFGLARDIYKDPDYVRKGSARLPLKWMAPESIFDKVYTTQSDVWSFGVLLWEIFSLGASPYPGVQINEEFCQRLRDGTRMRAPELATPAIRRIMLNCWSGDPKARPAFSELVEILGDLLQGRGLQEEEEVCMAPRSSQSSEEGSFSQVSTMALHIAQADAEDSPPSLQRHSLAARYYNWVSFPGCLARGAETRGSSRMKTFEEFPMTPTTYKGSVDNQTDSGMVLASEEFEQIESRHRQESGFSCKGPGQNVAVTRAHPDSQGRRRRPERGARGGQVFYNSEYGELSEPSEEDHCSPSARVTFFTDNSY

Key:
VEGFR3 = VEGFR3 (Homo sapiens (Human), UniProt P35916); test: VEGFR3 Phospho ELISA assay; type: cell-based; settings: HMVEC-dLyAD cells, treated 1 hour, VEGFC stimulated; phospho VEGFR3 relative to Total VEGFR3
[1] = molecular target: VEGFR3 cytoplasmic domain (Homo sapiens, UniProt P35916); test: VEGFR3 Biochemical assay (AlphaScreen); settings: N-terminal GST-fusion enzyme, 500 μM ATP, 90 minutes at 30 degree Celsius (modified form: Hexa-His-fusion, 1 μM ATP)

SMILES: CC(C(N)=O)c1ccccc1CCc1nc(Nc2cnn(C3CCNCC3)c2)ncc1C(F)(F)F (racemic) [Compound 56, 2-(2-(2-(2-((1-(piperidin-4-yl)-1H-pyrazol-4-yl)amino)-5-(trifluoromethyl)pyrimidin-4-yl)ethyl)phenyl)propanamide]
- IC50 (VEGFR3): 68 nM
- IC50 [1]: 27 nM
